## Binding of CDR-mutated scFvs to a peptide of the spike HR2 region

The target is the same throughout: PDVDLGDISGINAS, from the HR2 region of SARS-CoV-2 spike.

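The starting antibody came from a phage panning campaign against this peptide. Designed CDR sequences, proposed from the first random library and measured here. Group labels follow the data file (Ctrl: baseline library sampled from a position-specific scoring matrix, with some repeated check sequences; Rand: our label for a block that the file lists under HC and that is probably the random mutants of the ten best first-round binders; GP: Gaussian process model; GPLM: also part of the Gaussian process libraries; HC: hill climbing; Gen: genetic algorithm; Gibbs: Gibbs sampling; a sequence that several methods proposed may carry one label only). In AlphaSeq, yeast of one mating type display the scFv and yeast of the other type display the target. Binding brings cells together so that they mate, and sequencing counts the barcode pairs among the diploids. Scores were corrected for input abundance and mapped to Kd with protein pairs of known affinity run in the same pool. The assay was run in six technical replicates.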

Each scFv is VH, the linker GGGGSGGGGSGGGGS, VL, as in the parent Ab-14, and differs from it in the CDRs of the light chain only.
VH: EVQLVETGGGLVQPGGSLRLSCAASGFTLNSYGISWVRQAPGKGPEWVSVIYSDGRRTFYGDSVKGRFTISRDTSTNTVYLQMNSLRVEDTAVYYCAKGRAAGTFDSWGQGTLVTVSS
VL: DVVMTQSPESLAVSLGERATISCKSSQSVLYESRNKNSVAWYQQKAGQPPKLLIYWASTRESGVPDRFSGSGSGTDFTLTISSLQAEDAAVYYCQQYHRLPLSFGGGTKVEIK

Variants are written as CDR1, CDR2 and CDR3 of the light chain (limits as in the source). Parent: KSSQSVLYESRNKNSVA, WASTRES, QQYHRLPLS.
Variants here have at most six changes.
Each Kd is an estimate from the mating assay, the geometric mean of the replicates in which the pair was seen; lower is stronger.
Where no diploid with the target was found in any replicate, the entry reads "nd": below detection, most likely a poor binder, though not proof of it.
The range of this assay differs from that of the first round, and the authors advise against merging the two.
As a blank, each scFv also met three strains without target: over all light chain designs, 4% of these pairings were detected, typically at 430 nM and seldom below 38 nM. The control count says in how many pairings with the empty strains this scFv gave a signal.
In the paper, a design with two or fewer of six values counts as a poor binder.
Of ten entries with the parent sequence, four were seen in most replicates (averages 2.2 nM to 240 nM), three in one and three in none, so single entries are noisy.

* KLSQSWLYESRNKNSVA / NASQRER / QQYHRLPLS [GP_Gen] -> 5.4 nM (6 of 6 replicates; controls 0 of 18)
* KSSQSVLGESRNKNSVA / PASTRES / QQYHRLPLS [Rand] -> nd (0 of 6 replicates; controls 0 of 18)
* KLSQSQPYESRNKNSVA / NASTRES / QQYHRLPLS [GP_Gen] -> 1.6 nM (6 of 6 replicates; controls 4 of 18)
* KLPQSWLYESRNKNAVA / NASQRES / QQYHRLPLS [GP_Gen] -> 1.1 nM (6 of 6 replicates; controls 4 of 18)
* KTSQSMLYASRNKNSVA / WASTRES / QQYHRLPLS [Ctrl] -> 16 nM (2 of 6 replicates; controls 0 of 18)
* KVEQSVLYESRNKNAVA / NASTRES / QQYHRLPLS [GP_Gen] -> 1.7 nM (6 of 6 replicates; controls 0 of 18)
* DSSQSHLYESRNKNSVA / GASTRES / QQYHRLPLS [GP_HC] -> 980 pM (6 of 6 replicates; controls 0 of 18)
* KVSQSDLYEARNKNSVA / WAVTRET / QQYHRLPLS [Ctrl] -> 18 nM (6 of 6 replicates; controls 1 of 18)
* QSSQSYLYESRNKNNVA / WASTRES / QQYHRLPLT [Ctrl] -> 220 nM (1 of 6 replicates; controls 1 of 18)
* KLQQSVLYESRNKNSVA / GASCRES / QQYHRLPLS [GP_Gen] -> 1.2 nM (6 of 6 replicates; controls 1 of 18)
* KSSQSVLYESRMKNSVA / WASTRES / QAYHRLPLS [Ctrl] -> 99 nM (1 of 6 replicates; controls 0 of 18)
* KSSQSVDYESRNKNSVA / EASTREQ / QQYHRLPLS [GP_Gen] -> 2.9 nM (6 of 6 replicates; controls 1 of 18)
* KQSQSGLYESRNKNSVA / MASTRES / QQYHRLPLS [GP_HC] -> 12 nM (6 of 6 replicates; controls 0 of 18)
* KFSQSVLYESRAKNGVA / EASTRES / QQYHRLPLS [GP_HC] -> 12 nM (6 of 6 replicates; controls 0 of 18)
* KMSQKVKFESRNKNSVA / DASTRES / QQYHRLPLS [GP_HC] -> 510 pM (6 of 6 replicates; controls 0 of 18)
* KSSQSVLYESRNKNSVA / WASTREH / QQYHRLPLS [Ctrl] -> 14 nM (6 of 6 replicates; controls 0 of 18)
* KSSQSVLYESNNKNSVA / WASTRET / QQYTRLPLT [Ctrl] -> 2.9 nM (1 of 6 replicates; controls 0 of 18)
* KSSQSVLYESTNKNSVA / NASTRED / QQYHRLPLS [Ctrl] -> 2.4 nM (6 of 6 replicates; controls 2 of 18)
* KLSQSELMESRNKNSVA / SASTRES / QQYHRLPLS [GP_Gen] -> 630 pM (6 of 6 replicates; controls 6 of 18)
* KFSQSVDYESRTKNSVA / NASTRES / QQYHRLPLS [GP_HC] -> 16 nM (6 of 6 replicates; controls 0 of 18)
* KLSQSVLYESRNKNNVA / GASTRMS / QQYHRLPLS [GP_Gen] -> 460 pM (6 of 6 replicates; controls 0 of 18)
* KLMQSWLYESRMKNSVA / NASQRES / QQYHRLPLS [GP_Gen] -> 1.8 nM (6 of 6 replicates; controls 0 of 18)
* FVSQSVLYESRNKNSVA / NASTRES / QQYHRLPLS [GP_Gen] -> 630 pM (6 of 6 replicates; controls 3 of 18)
* KSRQSVLYESINKNSVA / WASLRES / QQYHRLPLS [Ctrl] -> nd (0 of 6 replicates; controls 1 of 18)
* KSPWSVLYESNNKNSVA / HASTRED / QQYHRLPLS [GP_HC] -> 2.2 nM (6 of 6 replicates; controls 3 of 18)
* KFSQSELFESRNKNSVA / DASTRES / QQYHRLPLS [GP_HC] -> 430 pM (6 of 6 replicates; controls 1 of 18)
* CLSQSVLYESRNKNSVA / NASTRES / QQYHRLPLS [GP_Gen] -> 510 pM (6 of 6 replicates; controls 1 of 18)
* KSSQSVLYESRNKNSVA / HASTRED / QQYGRLPLS [GPLM_HC] -> 910 pM (6 of 6 replicates; controls 0 of 18)
* KSIQSVLNEARNKNSVA / WASTRES / QQYHRLPLS [Ctrl] -> 100 nM (1 of 6 replicates; controls 0 of 18)
* KMSQSVDVLSRNKNSVA / NASTREM / QQYHRLPLS [GP_Gibbs] -> 830 pM (6 of 6 replicates; controls 0 of 18)
* QSAQSVLYESRNKNSVA / WASLRES / QQYHTLPLS [Ctrl] -> 130 nM (6 of 6 replicates; controls 0 of 18)
* KVSQSHLYESRNKNSVA / NASYRES / QQYHRLPLS [GP_Gen] -> 2.0 nM (6 of 6 replicates; controls 1 of 18)
* KSSQSVLYEGRNKNSVA / WISTRES / QQYSRLPLS [Ctrl] -> nd (0 of 6 replicates; controls 0 of 18)
* FLSQSVLYEDRNKNSVA / NASTRES / QQYHRLPLS [GP_Gen] -> 890 pM (6 of 6 replicates; controls 0 of 18)
* KLQQSDLYESRNKNSVA / NASTRMS / QQYHRLPLS [GP_Gen] -> 510 pM (6 of 6 replicates; controls 0 of 18)
* KSSQSWLYESRNFWSVA / GASTREV / QQYHRLPLS [GP_HC] -> 11 nM (6 of 6 replicates; controls 2 of 18)
* KSSQSVLYESRNKNHVA / WASTRES / QQYHRLPLS [Ctrl] -> 38 nM (1 of 6 replicates; controls 0 of 18)
* KSSISYLGLKRNKNSVA / EASTRES / QQYHRLPLS [GP_HC] -> 6.3 nM (6 of 6 replicates; controls 1 of 18)
* KIPQGVPYESRNKNSVA / GASVRES / QQYHRLPLS [GP_HC] -> 1.0 nM (6 of 6 replicates; controls 1 of 18)
* KLSQSVLYERRNKNSVA / EASTRES / QQYFRLPLS [Ctrl] -> 1.2 nM (6 of 6 replicates; controls 0 of 18)
* KLSQGMLYESRNKNSVA / NASTRES / QQYHRLPLS [GP_Gen] -> 270 pM (6 of 6 replicates; controls 2 of 18)
* KSSISYLYESRNCNSVA / EASTREQ / QQYHRLPLS [GP_HC] -> 13 nM (6 of 6 replicates; controls 1 of 18)
* KLLQSQLYESRNKNSVA / NASQRES / QQYHRLPLS [GP_Gen] -> 400 pM (6 of 6 replicates; controls 1 of 18)
* KCSQSDLYESRNKNSVA / EASTRES / QQYHRLPLS [GP_Gen] -> 1.7 nM (6 of 6 replicates; controls 1 of 18)

From the list, the first 3 with no signal in any replicate:

{"CDR-L1": "KSSQSVLGESRNKNSVA", "CDR-L2": "PASTRES", "CDR-L3": "QQYHRLPLS", "group": "Rand", "Kd (apparent)": "nd", "detected": "0/6", "signal with controls": "0/18"}
{"CDR-L1": "KSRQSVLYESINKNSVA", "CDR-L2": "WASLRES", "CDR-L3": "QQYHRLPLS", "group": "Ctrl", "Kd (apparent)": "nd", "detected": "0/6", "signal with controls": "1/18"}
{"CDR-L1": "KSSQSVLYEGRNKNSVA", "CDR-L2": "WISTRES", "CDR-L3": "QQYSRLPLS", "group": "Ctrl", "Kd (apparent)": "nd", "detected": "0/6", "signal with controls": "0/18"}

From the AlphaSeq antibody data of Li et al. 2023 (doi:10.1038/s41467-023-39022-2), copy in the FLAb collection.